This is an account of results in Sander's compilation of Henry's law constants (doi:10.1021/ac00070a008).

This series in a line: Henry solubility constant Hcp at 298.15 K (mol/(m3 Pa)). Particulars: reference: Li et al. (1993).

With `CCCCOCCCC` [dibutyl ether], the “Henry solubility constant Hcp” value came out at 0.0013.
